The values below come from paper PMC4323000 (Oncotarget, 2015).

This data set can be described thus: Pharmacokinetic study of MBL-II-141, CPT-11 and SN-38 (blood, liver, brain; LC-MS/MS). The note with it: CPT-11 20 mg/kg + MBL-II-141 10 mg/kg IP.

With `CCc1c2c(nc3ccc(OC(=O)N4CCC(N5CCCCC5)CC4)cc13)-c1cc3c(c(=O)n1C2)COC(=O)[C@]3(O)CC` [CPT-11, irinotecan], the “impact of MBL-II-141 on CPT-11 liver levels” value is listed as “no impact”.
